# Results as given in patent US6187807A, “Methods of use and compositions of (S) (-)-amisulpride” (Sanofi-Synthelabo, priority 1999, dated 2001).
# Experiments:
# D2 and D3 receptors = settings: in words; Schoemaker et al. and Perrault et al. 1997; cited from earlier work
# catalepsy = assay type: in vivo
# Experimental: The propensity of the drugs to induce extrapyramidal side effects was assessed by measuring their potential to induce catalepsy and to antagonize apomorphine-induced stereotyped behaviour and the sedative potential of the drugs was evaluated by their capacity to decrease spontaneous locomotor activity in the rat.
# The occurrence of catalepsy in rats was assessed using the four-cork test. This measurement was performed by placing each paw of the rat on a 2.5 cm high cork (diameter 1.2 cm). Distance between contralateral corks was 8 cm and between ipsilateral corks 13 cm. Catalepsy time was measured for a maximum of 2 min at 2 hours, and 4 hours after ip drug treatment.
structure (smiles),measurement,setting,value
"CCN1CCCC1CNC(=O)c1cc(S(=O)(=O)CC)c(N)cc1OC (racemic) [(R,S)-amisulpride]",Receptor blockade profile,D2 and D3 receptors,preferential blockade of D2 and D3 receptors with presynaptic and limbic selectivity
same,Potency of both compounds in models predictive of extrapyramidal and sedative side effects,"catalepsy; (S)(-)-amisulpride compared with (R,S)-amisulpride, in words",quite similar
same,"Induction of catalepsy, in words","catalepsy; at doses up to 100 mg/kg, ip",neither compound induced catalepsy
